Where two headings read alike, the source gives them in different places.
What was measured:
[1] = system: HT-1080 tumor xenograft
[2] = system: HT-1080, M-805 and HS-16 cell lines; settings: three cell lines; 24 hour drug exposure; data not shown
[3] = system: human prostate cancer LNCaP tumor xenograft; settings: 400 mg/kg i.v. bolus, 9 minutes per spectrum
[4] = system: M-805 tumor xenograft
[5] = 400 mg/kg i.v. bolus
[6] = system: HS-16 tumor xenograft

Which “time of peak tumor tissue concentration post-injection” value ([1]; 400 mg/kg i.v. bolus, HT-1080 tumor) does the source give for “N-(2-Fluoro-4-amino-4-deoxy-N-methyl-pteroyl)-L-glutamic acid [FMTX]” here?
The value was 234 min.

And the “peak tumor tissue concentration” value ([1]; 400 mg/kg i.v. bolus, HT-1080 tumor, 19F MR)?
Its value is 0.54 ± 0.15 mM.

What about the “intratumor 19F-MR observable concentration” value ([1]; mouse, in vivo) of the same substance?
The value was 0.54 ± 0.15 mM.

And the “in vitro cytotoxic potency compared with MTX” value [2]?
The value was “equipotent”.

And the “tumor uptake detectable in vivo by 19F MR” value [3]?
Its value is “readily detectable”.

And the “time of peak tumor tissue concentration post-injection” value ([4]; 400 mg/kg i.v. bolus, M-805 tumor)?
The value was 72 min.

What about the “peak tumor tissue concentration” value ([4]; 400 mg/kg i.v. bolus, M-805 tumor, 19F MR) of the same substance?
Its value is 0.19 ± 0.08 mM.

And the “intratumor 19F-MR observable concentration” value ([4]; mouse, in vivo)?
Its value is 0.10 ± 0.05 mM.

What about the plasma concentration ([5]; 30 minutes post-injection) of the same substance?
Its plasma concentration is 320000 ± 20000 nM.

What about the plasma concentration ([5]; 4 hours post-injection) of the same substance?
Its plasma concentration is 1700 ± 300 nM.

And the plasma concentration ([5]; 24 hours post-injection)?
Its plasma concentration is 180 ± 90 nM.

And the “[FMTX]plasma at t=0 min, estimate from fit” value ([5]; extrapolated from fit)?
The value was 0.482 mM.

What about the “A, amplitude of fast-washout component of biexponential plasma decay” value ([5]; fit to Eqn. 2) of the same substance?
The value was 0.480 mM.

And the “B, amplitude of slow-washout component of biexponential plasma decay” value ([5]; fit to Eqn. 2)?
Its value is 0.00247 mM.

What about the “rate-constant k1, fast-washout component” value ([5]; plasma) of the same substance?
The value was 1.74 h⁻¹.

And the “rate-constant k2, slow-washout component” value ([5]; plasma)?
Its value is 0.11 h⁻¹.

What about the “t1/2, fast-washout component” value ([5]; plasma) of the same substance?
Its value is 0.399 h.

What about the “t1/2, slow-washout component” value ([5]; plasma) of the same substance?
The value was 6.3 h.

What about the “time of peak tumor tissue concentration post-administration” value ([6]; 400 mg/kg i.v. bolus, HS-16 tumor) of the same substance?
Its value is 126 min.

What about the “peak tumor tissue concentration” value ([6]; 400 mg/kg i.v. bolus, HS-16 tumor, 19F MR) of the same substance?
The value was 0.31 ± 0.15 mM.

And the “intratumor 19F-MR observable concentration” value ([6]; mouse, in vivo)?
The value was 0.10 ± 0.08 mM.

— US20040259878A1, “Fluoromethotrexates and uses therefor” (priority 2003, published 2004)
